Source: PubChem
An excerpt weighted towards active compounds, which were near 2.5% of everything screened.
rTrxR1 inhibitor: rat TrxR1 inhibition | O89049 | recombinant rTrxR1, NADPH fluorescence consumption, selenite substrate | Potency, µM (titrated, usually from 114 µM), inactives show top-dose activity change, negative = inhibition, actives largely listed as inhibitors | 1% of 390,000 active | AID 588453; note: potency is the fitted concentration of half-maximal effect; % is set by controls: 0 for no effect and ±100 for the full control effect; nearly all actives have a fitted effect of over 65% in size
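Rat TrxR1 (90 nM in the dispensed reagent) was pre-reduced with 400 uM NADPH for 5 min at room temperature, then incubated with compound for 15 min. After 400 uM selenite was added, NADPH fluorescence (Ex 340/Em 450 nm) was followed for 8 min.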
TrxR1 substrate: substrates of rat thioredoxin reductase 1; O89049; AID 588456; Potency, µM (doses to about 114 µM), for inactives: at the highest dose activity change, negative = substrate turnover; purified TrxR1 substrate turnover, NADPH consumption readout; 0.01% of 390,000 active; note: potency is the fitted concentration of half-maximal effect; % is set by controls: 0 for no effect and ±100 for the full control effect; nearly all actives have a fitted effect of over 50% in size
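Rat TrxR1, dispensed at 90 nM, was prereduced with 400 uM NADPH (final) for 5 min at ~22 deg C, then incubated with compound 15 min before 400 uM selenite. A first-read NADPH fluorescence drop versus no-compound background flagged substrates.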
Anesthetic bind: binds horse apoferritin like a general anesthetic; 0.074% of 350,000 active; Potency, µM (doses to about 77.5 µM), without a hit: top-dose activity change, negative = displacement, usual class: inhibitors; AID 485281; P02791; apoferritin/1-aminoanthracene competitive binding, fluorescence; note: potency is the fitted concentration of half-maximal effect; % is set by controls: 0 for no effect and ±100 for the full control effect; nearly all actives have a fitted effect of over 20% in size
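Read-out: endpoint 1-AMA fluorescence, excitation 380 nm and emission 535 nm, after compounds sit 10 min at room temperature with 10 uM horse-spleen apoferritin in 50% saturated 1-AMA/PBS. Values come from four-parameter Hill fits.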
ClpP mod: qHTS Assay for Activators of ClpP. ATP-dependent Clp protease proteolytic subunit (Bacillus subtilis (strain 168)), P80244. purified B. subtilis ClpP, FRET peptide cleavage, 20 min. Potency, µM (series often up to 57.5 µM), for inactives: at the highest dose activity change, negative = active. 1.9% of 340,000 active; active = well fitted falling curve with a large enough effect; inconclusive = small, poorly fitted or top-dose-only effect; inactive = no such curve, though single readings can be large or run the other way; note: potency is the fitted concentration of half-maximal effect; the source files actives as falling curves though it sought activators and does not explain the sign; nearly all actives have a fitted effect of over 65% in size
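FRET quenching reversal measured ClpP activation: 10 microg/mL B. subtilis ClpP at pH 8 with the FRET-FV decapeptide, read at 430 nm after 320 nm excitation. The 20-min minus 0-min signal was scaled between DMSO/no-enzyme wells and ADEP (5.8 microM final).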
miR-21 reporter: miR-21 reporter, rising signal; HeLa miR-21 FLuc reporter, luciferase, 48 h; Potency, µM (titrated, usually from 38.3 µM), for the others: at the top dose reporter change, positive = more light; 340,000 tested, under 10 active; AID 2288; active = well fitted rising curve with a large enough effect; inconclusive = small, poorly fitted or top-dose-only effect; inactive = no such curve, though single readings can be large or run the other way;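 also: % of control where 0% means no effect; miR-21 action dims this reporter so a rising signal means less miR-21 action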
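Compounds were titrated across several concentrations (up to approximately 40 uM) and incubated 48 hours with HeLa miR-21-FLuc reporter cells (miR-21 target sequence downstream of FLuc, endogenous miR-21). Readout was firefly luciferase luminescence after lytic detection reagent.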
Numbers without * were called inactive; i = inactive; ? = inconclusive; . = no result; [ ] = remark or other dose. Unless noted, calls come from the whole dose curve; as a rule, active = well fitted curve in the direction sought with a large enough effect; inconclusive = small, poorly fitted or top-dose-only effect, or another doubt; inactive = no such curve, though single readings can be large; an effect the other way counts as inactive or inconclusive.

Chains of the proteins cited; added tags and fusions are not shown.
ATP-dependent Clp protease proteolytic subunit (Bacillus subtilis (strain 168)), P80244, UniProt P80244, whole entry, looked up: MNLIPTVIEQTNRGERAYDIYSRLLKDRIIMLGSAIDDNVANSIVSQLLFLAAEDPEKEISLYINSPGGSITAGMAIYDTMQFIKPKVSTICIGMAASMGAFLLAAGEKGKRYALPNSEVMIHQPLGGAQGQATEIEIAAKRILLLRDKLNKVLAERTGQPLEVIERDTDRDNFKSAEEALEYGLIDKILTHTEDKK

| nr | rTrxR1 inhibitor | TrxR1 substrate | Anesthetic bind | ClpP mod | miR-21 reporter | smiles |
| --- | --- | --- | --- | --- | --- | --- |
| 1 | 1.9% | -6.5% | 4.6% | -2.5% | -1.0% | CCN(CC)c1ccc(C(=O)O)cc1 |
| 2 | ? | 7.3% | -8.1% | 25.1µM* | -33.4% | Cc1cccc(OCCn2c(-c3ccco3)nc3ccccc32)c1 |
| 3 | -8.1% | -0.1% | -11.8% | -0.7% | -4.9% | Nc1nonc1-c1nc2ccccc2n1CC(=O)N1CCCCC1 |
| 4 | ? | 36.5% | 2.3% | 31.6µM* | -29.3% | CCn1c(-c2ccco2)nc2ccccc21 |
| 5 | -17.2%[57.1 µM] | 19.7%[57.1 µM] | -7.3% | 15.8µM* | -0.3% | O=C(Cn1c(-c2ccco2)nc2ccccc21)N1CCCCC1 |
| 6 | 14.1µM* | 13.1% | -22.9% | -29.4% | -30.8% | c1ccc(OCCn2c(-c3ccco3)nc3ccccc32)cc1 |
| 7 | 26.0%[57.1 µM] | 3.4%[57.1 µM] | -5.4% | -11.6% | -0.1% | O=C(Nc1nc2ccccc2n1CCOc1ccccc1)c1ccco1 |
| 8 | 25.7% | 2.9% | -7.1% | -2.7% | -2.7% | CCOc1ccc(OCC)c(NC(=O)Cn2nc(CC)n3c(cc4sccc43)c2=O)c1 |
| 9 | 11.7%[57.1 µM] | -8.0%[57.1 µM] | ? | 1.4% | -2.3% | Cc1ccc(C(=O)N2CCN3C(=O)c4ccccc4C23c2ccc(Cl)cc2)cc1 (configuration not stated) |
| 10 | 25.2%[57.1 µM] | 5.9%[57.1 µM] | -8.2% | 15.8µM* | ? | O=C(Nc1cccc(Cl)c1)N1CCN2C(=O)c3ccccc3C12c1ccccc1 (configuration not stated) |
| 11 | 5.01µM* | 10.7%[57.1 µM] | -6.6% | . | ? | O=C(CCl)N1CCN2C(=O)c3ccccc3C12c1ccc(Cl)cc1 (configuration not stated) |
| 12 | 41.9% | 9.6% | 181.3% | -15.2% | 17.8% | COc1ccc(Cn2c(SCc3ccc(C(=O)NCc4cccs4)cc3)nc3ccncc32)cc1 |

The list continues:
| nr | rTrxR1 inhibitor | TrxR1 substrate | Anesthetic bind | ClpP mod | miR-21 reporter | smiles |
| --- | --- | --- | --- | --- | --- | --- |
| 13 | 17.2% | 7.4% | -1.9% | ? | -1.3% | COc1ccc(C2c3c(n(C)c4ccccc34)C(=O)N2CC(=O)Nc2ccc(F)cc2)cc1 (configuration not stated) |
| 14 | 22.1% | 3.4% | -2.6% | 17.8µM* | 25.4% | COc1ccc(C2c3c(n(C)c4ccccc34)C(=O)N2CC(=O)Nc2ccc(Cl)cc2)cc1 (configuration not stated) |
| 15 | 8.6% | 16.2% | -6.8% | 31.6µM* | 24.0% | CCCCNC(=O)CN1C(=O)c2c(c3ccccc3n2C)C1c1ccc(OC)cc1 (configuration not stated) |
| 16 | 30.4% | 13.4% | -16.0% | 25.1µM* | 10.7% | CCc1cccc(C)c1NC(=O)CN1C(=O)c2c(c3ccccc3n2C)C1c1ccc(OC)cc1 (configuration not stated) |
| 17 | 4.5%[57.1 µM] | -6.6%[57.1 µM] | 9.2% | -1.6% | -0.7% | CCCOc1ccc(C2C(=O)N(C3CCCCCC3)CC(=O)N2Cc2ccc(OC)cc2)cc1OC (configuration not stated) |
| 18 | 5.2%[57.1 µM] | 6.7%[2.29 µM] | -9.2% | 0.6% | 0.7% | CCOC(=O)CCNC(=O)N1CCC(CCC(=O)NCc2ccc(F)cc2)CC1 |
| 19 | 16.1%[57.1 µM] | 5.4%[57.1 µM] | -2.6% | 17.8µM* | -0.9% | CCOC(=O)CCNCc1ccc(F)cc1 |
| 20 | 1.6% | -10.2% | 61.1% | 0.5% | 9.2% | CCOc1ccccc1NC(=O)Cc1csc(COc2cccc(C)c2)n1 |
| 21 | 4.6%[57.1 µM] | 9.0%[57.1 µM] | 75.8% | . | -1.2% | Fc1ccc(N2N=C(c3cccs3)CC2c2ccccc2)cc1 (configuration not stated) |
| 22 | ? | 218.4% | i | 15.8µM* | -7.1% | Fc1ccccc1N1CC(c2ccccc2)C(c2cccs2)=N1 (configuration not stated) |
| 23 | 21.3% | -0.9% | -11.1% | -0.1% | 13.1% | COc1cccc(N2C(=O)CSC23C(=O)N(CC(=O)Nc2cccc(Cl)c2)c2ccccc23)c1 (configuration not stated) |
| 24 | 0.6% | 53.4% | 6.3% | 22.4µM* | -5.1% | O=C(c1cccn2c(=O)c3ccc(Cl)cc3nc12)N1CCN(Cc2ccc3c(c2)OCO3)CC1 |

One compound at a time, from the list above:
CCOc1ccc(OCC)c(NC(=O)Cn2nc(CC)n3c(cc4sccc43)c2=O)c1 as listed: rTrxR1 inhibitor: 25.7%; TrxR1 substrate: 2.9%; Anesthetic bind: -7.1%; ClpP mod: -2.7%; miR-21 reporter: -2.7%
Cc1ccc(C(=O)N2CCN3C(=O)c4ccccc4C23c2ccc(Cl)cc2)cc1 (configuration not stated) as listed: rTrxR1 inhibitor: 11.7%[57.1 µM]; TrxR1 substrate: -8.0%[57.1 µM]; Anesthetic bind: ?; ClpP mod: 1.4%; miR-21 reporter: -2.3%

The list goes on:
| nr | rTrxR1 inhibitor | TrxR1 substrate | Anesthetic bind | ClpP mod | miR-21 reporter | smiles |
| --- | --- | --- | --- | --- | --- | --- |
| 25 | -15.8% | -9.7% | -8.8% | 28.2µM* | 3.7% | CN(CC(=O)Nc1ccccc1Br)C(=O)c1ccccc1-c1nc2ccccc2s1 |
| 26 | 22.8%[57.1 µM] | -0.7%[57.1 µM] | -9.1% | -9.0% | 2.7% | COC(=O)c1c(SC)nc2ccccc2c1OCc1ccccc1Cl |
| 27 | 17.8µM* | 7.9%[57.1 µM] | -11.8% | . | 4.3% | COc1cc(NCCC(=O)c2cccs2)c(OC)cc1Cl |
| 28 | 26.3% | 6.5% | 2.9% | . | -11.0% | COc1ccc(NC(=O)CCC(=O)c2cccs2)cc1Cl |
| 29 | 14.1µM* | 7.9%[57.1 µM] | -21.4% | -12.4% | -3.9% | CCCCNC(=O)CS(=O)Cc1nc(-c2cccc(Cl)c2)oc1C (configuration not stated) |
| 30 | 6.1% | 9.2% | 0.2% | ? | 0.0% | COc1ccc(-c2nc(CS(=O)CC(=O)NCc3ccccc3Cl)c(C)o2)cc1OC (configuration not stated) |
| 31 | 4.7%[57.1 µM] | 3.4%[57.1 µM] | 28.2µM* | -11.4% | -24.6% | COc1cccc(-c2nc(CS(=O)CC(=O)NCc3ccccc3Cl)c(C)o2)c1 (configuration not stated) |
| 32 | 8.9% | 4.2% | -3.2% | 0.7% | -1.1% | CCOC(=O)Cn1c(=O)oc2cc(S(=O)(=O)N3CCC(C(=O)OCC)CC3)ccc21 |
| 33 | 42.9% | 28.2% | -3.2% | 28.2µM* | -30.2% | CN(C)c1ccc(-c2nnn(Cc3ccccc3Br)n2)cc1 |
| 34 | ? | 118.9% | 1.6% | 14.1µM* | -10.8% | O=C(CSc1ncccc1-c1nc2ccccc2[nH]1)NCc1ccco1 |
| 35 | -13.2% | -4.0% | -13.9% | -6.9% | 17.2% | Cc1cc(C)c2cc(C)c(SCC(=O)NCc3ccco3)nc2c1 |
| 36 | . | . | 3.9% | . | -40.8% | Cc1cc2nc(-c3cccnc3SCC(=O)NC3CC3)[nH]c2cc1C |

Records listed so far printed as active in Anesthetic bind:
| nr | rTrxR1 inhibitor | TrxR1 substrate | Anesthetic bind | ClpP mod | miR-21 reporter | smiles |
| --- | --- | --- | --- | --- | --- | --- |
| 31 | 4.7%[57.1 µM] | 3.4%[57.1 µM] | 28.2µM* | -11.4% | -24.6% | COc1cccc(-c2nc(CS(=O)CC(=O)NCc3ccccc3Cl)c(C)o2)c1 (configuration not stated) |

The list continues:
| nr | rTrxR1 inhibitor | TrxR1 substrate | Anesthetic bind | ClpP mod | miR-21 reporter | smiles |
| --- | --- | --- | --- | --- | --- | --- |
| 37 | 7.4% | 13.4% | -18.9% | -1.0% | -26.0% | O=C(CSc1nc2ccccc2[nH]1)NCc1ccco1 |
| 38 | 56.2µM* | 0.8% | 7.1% | -7.1% | -16.9% | Cc1cc(C)c2cc(C#N)c(SCC(=O)NCc3ccco3)nc2c1 |
| 39 | -14.3% | 73.1% | 61.7% | 15.8µM* | -2.1% | Cc1cc2nc(-c3cccnc3SCC(=O)NCc3ccco3)[nH]c2cc1C |
| 40 | 27.8% | -1.1% | -13.2% | 1.5% | 10.6% | COc1ccc(-c2noc(CN(C(=O)Cc3ccc(C)cc3)C(C)C)n2)cc1 |
| 41 | ? | -1.5% | 14.1µM* | 1.0% | 0.3% | N#Cc1c(Sc2ncc(C(F)(F)F)cc2Cl)nsc1C/C=N\OCc1ccccc1Br |
| 42 | 15.2% | -11.5% | 1.8% | -4.2% | ? | CC(C)(C)OC(=O)[C@H](Cc1ccccc1)NC(=O)c1nc[nH]c1C(=O)N[C@@H](Cc1ccccc1)C(=O)OC(C)(C)C |
| 43 | . | . | . | 7.94µM* | . | CC(C)(C)OC(=O)[C@H](Cc1ccccc1)NC(=O)c1ncn2c1c(=O)[nH]c1ccc(Br)cc12 |
| 44 | 1.6%[57.1 µM] | -1.7%[57.1 µM] | -3.5% | -2.3% | -10.6% | COc1cccc(N2CCN(C(=O)c3cnc4c(-c5ccc(F)cc5)c(C)nn4c3C)CC2)c1 |
